In PMC9866728, “Dosing Methods to Enable Cell-Based In Vitro Testing of Complex Substances: A Case Study with a PAH Mixture” (Toxics, 2022):
Values joined by “and” are separate entries in the source; they are usually repeats but may differ in a detail not shown here. Identical values can stand only once.

Conditions: STOCK_10_R1-R3 (replicates) of the block 10 ug/mL MAF, 24 hr exposure; raw GC-MS/MS analyte/ISTD response ratio

Q: Which “ISTD Resp. Ratio, stock” value does the source give for `c1ccc2c(c1)-c1cccc3cccc-2c13` [Fluoranthene] here?
A: The value was 474.113 and 473.435.
